The results in this text go back to patent US9012455B2, “Pharmaceutical compositions containing an indoyl isoquinoline containing compound and uses thereof” (The Regents of the University of California, priority 2006, dated 2015).

The chains behind the UniProt entries cited, without tags or fusion partners.
UniProt Q06609, whole entry: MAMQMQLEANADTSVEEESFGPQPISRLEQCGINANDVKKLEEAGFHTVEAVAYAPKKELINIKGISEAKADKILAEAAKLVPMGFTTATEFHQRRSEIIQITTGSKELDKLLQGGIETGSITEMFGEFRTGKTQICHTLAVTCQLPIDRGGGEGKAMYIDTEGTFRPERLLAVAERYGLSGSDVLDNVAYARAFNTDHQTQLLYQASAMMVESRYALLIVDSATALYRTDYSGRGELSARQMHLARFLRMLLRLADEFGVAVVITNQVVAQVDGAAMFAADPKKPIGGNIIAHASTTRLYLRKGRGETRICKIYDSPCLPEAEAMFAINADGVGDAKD

This assay concerns the target Rad51-BRC repeat binding (Homo sapiens, UniProt Q06609). Briefly: SPR (Biacore) competitive binding assay, solution competition format. The conditions noted are these: read-out: median inhibition concentration.

With `O=S(=O)(Cc1ccccc1)N1C=Cc2ccccc2[C@H]1c1c[nH]c2ccccc12`, the IC50 came to 1 µM.
